This note sets out measurements from patent US12116358B2, “Substituted indoles and methods of use thereof” (EPIZYME, INC., priority 2018, dated 2024).

By IC50 is commonly meant the concentration needed to halve the response being measured.

The target in this assay is T1, SETD2(1434-1711) (Homo sapiens, UniProt Q9BYW2).
T1 construct: SETD2 (1434-1711) Assay; catalogue N/A
T1 sequence (Q9BYW2 1434-1711): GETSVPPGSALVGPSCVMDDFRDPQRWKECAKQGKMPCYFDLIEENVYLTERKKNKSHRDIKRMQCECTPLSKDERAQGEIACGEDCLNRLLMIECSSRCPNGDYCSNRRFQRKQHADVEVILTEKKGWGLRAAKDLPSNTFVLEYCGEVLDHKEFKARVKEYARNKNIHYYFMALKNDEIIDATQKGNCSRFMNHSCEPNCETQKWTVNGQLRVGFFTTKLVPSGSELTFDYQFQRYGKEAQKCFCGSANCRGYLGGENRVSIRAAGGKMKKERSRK
The assay is described as follows: SETD2 (1434-1711) assay. It is filed as biochemical.

As to `Cc1cccc2cc(C(=O)N[C@H]3CC[C@@H](NC(=O)CCN)CC3)[nH]c12` [compound 592], the IC50 is over 50 µM.
